Assays:
Assay in all cases: SPR
[1] = target: Basigin ectodomain, AVEXIS bait or prey and biotinylated SPR ligand (human) (UniProt P35613)
[2] = target: P113 Y1-K197, biotinylated SPR ligand (P. falciparum (3D7 strain))
[3] = target: P113 Y1-N653, biotinylated SPR ligand (P. falciparum (3D7 strain))
[4] = target: P113 entire ectodomain, AVEXIS bait or prey and biotinylated SPR ligand (P. falciparum (3D7 strain))

Chains of the proteins cited; added tags and fusions are not shown. Residues count along the entry.
UniProt P35613, 138-325: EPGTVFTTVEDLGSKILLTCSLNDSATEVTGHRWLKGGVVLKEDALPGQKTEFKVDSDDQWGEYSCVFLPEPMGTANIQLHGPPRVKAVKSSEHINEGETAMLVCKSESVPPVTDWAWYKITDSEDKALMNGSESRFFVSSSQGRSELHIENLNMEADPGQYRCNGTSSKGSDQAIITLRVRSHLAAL

## RH5FL, purified monomeric SPR analyte (from UniProt Q8IFM5 25-526) (natural protein)
[1]
  koff: 0.244 s⁻¹
  kon: 182000 M⁻¹ s⁻¹
[2]
  koff: 0.307 s⁻¹
  kon: 284000 M⁻¹ s⁻¹
[3]
  koff: 0.412 s⁻¹
  kon: 753000 M⁻¹ s⁻¹
[4]
  koff: 0.231 s⁻¹
  kon: 780000 M⁻¹ s⁻¹
